Here are results for three substances from patent publication US5707966A, “Antithrombotic agents” (Eli Lilly and Company, priority 1995, dated 1998).

The nature of the data set: Index of bioavailability (% Relative Activity, plasma TT AUC oral vs i.v.). The format is in vivo. As to conditions: dose-adjusted AUC of plasma TT, p.o. vs i.v. bolus.
With “1-Piq-Pro-p-NHCH2 C6 H4 C(NH)NH2.2HCl [Example 18]”, the “% oral/i.v. activity (Rat)” value is on record as 12%. With “D-hPro-Pro-p-NHCH2 C6 H4 C(NH)NH2.HCl [Example 17]” the figure was 15%; with “EtSO2 -D-Phe-Pro-p-NHCH2 --C6 H4 C(=NH)NH2.HCl [Example 23]”, 12%.
